The values below come from US5215744A, “Methods for the treatment of tumors” (Boehringer Ingelheim GmbH, priority 1987, dated 1993).

The subject of one test is MM-1CB. To be noted: agent alone: 10 units/ml HuIFN-β or 0.1 μM dipyridamole (FIG. 1).
The next test relates to KT cells. To be noted: HuIFN-β alone (as printed in text).

B1: HuIFN-β: Natural HuIFN preparations; β (10^7 I.U./mg protein) (protein, UniProt P01574 22-187, looked up)
Interferon beta: MSYNLLGFLQRSSNFQCQKLLWQLNGRLEYCLKDRMNFDIPEEIKQLQQFQKEDAALTIYEMLQNIFAIFRQDSSSTGWNETIVENLLANVYHQINHLKTVLEEKLEKEDFTRGKLMSSLHLKRYYGRILHYLKAKEYSHCAWTIVRVEILRNFYFINRLTGYLRN
Consider B1, for which the “suppression of cell proliferation” value in the test with MM-1CB is “only slightly effective in suppressing cell proliferation”. In addition, the “DNA synthesis in KT cells” value in the test with KT cells was “inhibited”.
